# Assay results reported in publication PMC4138375, “CNX-013-B2, a unique pan tissue acting rexinoid, modulates several nuclear receptors and controls multiple risk factors of the metabolic syndrome without risk of hypertriglyceridemia, hepatomegaly and body weight gain in animal models” (Diabetology & Metabolic Syndrome, 2014).
# Protein sequences, listed by entry. Tags and fused reporters are not part of them.
# UniProt P37231, whole entry, species assumed: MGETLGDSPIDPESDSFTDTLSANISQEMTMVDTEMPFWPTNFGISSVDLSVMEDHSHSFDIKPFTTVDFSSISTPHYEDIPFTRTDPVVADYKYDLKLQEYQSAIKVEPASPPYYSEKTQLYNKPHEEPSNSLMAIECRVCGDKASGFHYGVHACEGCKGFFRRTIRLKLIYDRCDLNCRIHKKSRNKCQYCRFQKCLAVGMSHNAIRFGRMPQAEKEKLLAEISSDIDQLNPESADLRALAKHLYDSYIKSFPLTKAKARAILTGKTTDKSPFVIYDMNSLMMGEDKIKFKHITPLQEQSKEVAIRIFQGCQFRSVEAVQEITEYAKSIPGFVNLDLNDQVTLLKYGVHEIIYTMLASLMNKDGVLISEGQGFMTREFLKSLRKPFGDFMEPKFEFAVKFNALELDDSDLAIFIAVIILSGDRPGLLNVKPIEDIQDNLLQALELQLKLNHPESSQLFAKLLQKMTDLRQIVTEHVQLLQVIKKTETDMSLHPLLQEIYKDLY
# Target: T1, PPARγ (Homo sapiens, UniProt P37231)
# T1 construct: expressed in transfected cells; host or cells: HEK293
# Experiment: Transactivation of PPARγ in absence of RXR
# Type: cell-based
# Conditions: Additional file 1E
smiles,measurement,value
CN(CCOc1ccc(CC2SC(=O)NC2=O)cc1)c1ccccn1 (stereo not shown) [rosiglitazone],Activation of PPARγ in absence of RXR,activated
